The values below come from PubChem BioAssay AID449 (The Scripps Research Institute Molecular Screening Center, 2006).

Amino acid sequences for entries named in this document (tags omitted).
UniProt P21453, whole entry: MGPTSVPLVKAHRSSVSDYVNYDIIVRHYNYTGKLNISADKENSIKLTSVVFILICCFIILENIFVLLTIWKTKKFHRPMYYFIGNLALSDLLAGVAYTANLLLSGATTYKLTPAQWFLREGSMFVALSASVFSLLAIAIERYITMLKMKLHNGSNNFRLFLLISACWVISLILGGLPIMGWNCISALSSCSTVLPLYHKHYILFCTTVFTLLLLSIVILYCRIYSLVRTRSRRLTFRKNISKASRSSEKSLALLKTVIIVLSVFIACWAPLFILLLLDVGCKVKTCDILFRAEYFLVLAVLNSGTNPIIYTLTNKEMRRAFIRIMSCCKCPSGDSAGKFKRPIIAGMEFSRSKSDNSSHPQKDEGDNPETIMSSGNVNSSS

The list shows a part of the results, in another mix than the full data. Activity calls are given as the source filed them.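 The calls were made as follows: active = activation above a cutoff set at the mean activation of all tested compounds plus 3 SD (cut at about 54% in these data); inactive = the rest, inconclusive results apart.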

The target of the experiment is Sphingosine 1-phosphate receptor 1 (Homo sapiens) (UniProt P21453). Description: activation or potentiation of human S1P1 signaling – cell-based, primary and confirmation screens, CRE-bla reporter, primary screen (AID 449).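 Also: forskolin at 4 µM as EC80 and the EC20 agonist is SEW2871; 100% = SEW2871 at its EC100 plus forskolin at EC80.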 The settings on record: S1P1 CRE-bla cells, forskolin, beta-lactamase FRET, potentiator mode; at 9.5 µM; hits give high values; 100% = saturating reference agonist, 0% = basal; S1P1 agonist co-added at EC20, 2 nM.
As to `CP(=O)(Nc1ccccc1F)Oc1ccccc1` (stereo not given), the activation is inactive: -6.7%. Turning to `CN(C)CCOC(=O)C(O)(c1ccccc1)C1CCCCC1` (stereo not given), the activation is inactive: 6.5%. As to `Cc1ccccc1NP(C)(=O)Nc1ccccc1C`, the activation is inactive: 8.2%. Consider `CCOP(C)(=S)SCC(=O)NC(C)(CC)C(=O)O` (stereo not given), for which the activation was inactive: 2.1%. With `COc1ccccc1OP(C)(=O)Nc1c(C)n(C)n(-c2ccccc2)c1=O` (stereo not given) the figure was inactive: 12.5%. Regarding `CP(=O)(Oc1ccccc1)N1CCOC1=O` (stereo not given), the activation was inactive: -0.8%.

Turning to `CCN(CC)CC(O)COC(=O)C(O)(c1ccccc1)C1CCCCC1` (stereo not given), the activation was inactive: -15.9%.

In the case of `Cc1nc2ccc3ccccc3c2o1.O=[N+]([O-])c1cc([N+](=O)[O-])c(O)c([N+](=O)[O-])c1`, the activation was inactive: -3.8%.

Consider `COc1ccccc1OP(C)(=O)Nc1ccc(C)c(C)c1` (stereo not given), for which the activation was inactive: 19.6%. For the compound `CP(=O)(Nc1ccccn1)Oc1ccccc1` (stereo not given), the activation is inactive: -18.5%.

In the case of `Cc1ccc(NP(C)(=O)Oc2ccccc2)c(C)c1` (stereo not given), the activation is inactive: 2.9%.

Turning to `COc1ccccc1OP(C)(=O)Nc1ccc(C)cc1` (stereo not given), the activation is inactive: -9.9%. Regarding `CP(=S)(Nn1cnnc1)Oc1ccccc1` (stereo not given), the activation is inactive: -1.1%. With `CCOP(C)(=S)SCC(=O)NC(C)C(=O)O` (stereo not given) the figure was inactive: 9.8%; with `Cc1nc2ccc3ccccc3c2s1.O=[N+]([O-])c1cc([N+](=O)[O-])c(O)c([N+](=O)[O-])c1`, inactive: -12.8%.
